# Data: patent US6635432B1, “Peptide potentiation of acid-sensory ion channel in pain” (University of Iowa Research Foundation, priority 2000, dated 2003)
# Protein sequences, listed by entry. Tags and fused reporters are not part of them. Lines headed by an entry give the natural chain unless they say otherwise; changes in a name come on top.
# UniProt Q25011: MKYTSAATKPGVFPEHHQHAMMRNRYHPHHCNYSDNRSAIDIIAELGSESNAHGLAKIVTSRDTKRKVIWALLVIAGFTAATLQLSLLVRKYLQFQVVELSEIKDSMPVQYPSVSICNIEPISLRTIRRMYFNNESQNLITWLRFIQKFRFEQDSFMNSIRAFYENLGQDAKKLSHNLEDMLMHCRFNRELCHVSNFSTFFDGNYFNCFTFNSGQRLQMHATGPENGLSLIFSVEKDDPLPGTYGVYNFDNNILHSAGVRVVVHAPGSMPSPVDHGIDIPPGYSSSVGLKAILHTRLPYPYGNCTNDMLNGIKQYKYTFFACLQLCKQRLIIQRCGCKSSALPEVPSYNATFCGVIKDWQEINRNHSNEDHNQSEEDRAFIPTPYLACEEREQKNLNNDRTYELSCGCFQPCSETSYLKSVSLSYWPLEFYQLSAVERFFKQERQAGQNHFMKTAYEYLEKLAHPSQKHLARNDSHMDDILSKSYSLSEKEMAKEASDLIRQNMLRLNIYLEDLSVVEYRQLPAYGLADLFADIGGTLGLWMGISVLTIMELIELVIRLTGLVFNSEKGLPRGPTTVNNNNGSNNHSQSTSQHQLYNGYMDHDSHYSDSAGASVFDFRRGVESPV
# Key:
# water-injected oocytes = experiment: Control, water-injected Xenopus oocytes; type: cell-based, Xenopus laevis; conditions: pH and FMRFamide in any combination
# Method: (§1) Expression of the cDNA constructs in Xenopus oocytes was accomplished by injection of plasmid DNA into the nucleus of defolliculated albino Xenopus laevis oocytes (Nasco, Fort Atkinson, Wis.) as described previously (Adams, C. M., Snyder, P. M., Price, M. P., and Welsh, M. J. (1998). Protons activate brain Na^+ channel 1 by inducing a conformational change that exposes a residue associated with neurodegeneration. J Biol Chem 273, 30204-30207). Plasmids were injected at concentrations of 100 ng/μl for most experiments. Oocytes were incubated in modified Barth's solution at 18° C. for 12-26 hr after injection. Cells injected with DRASIC were allowed to incubate for 24-48 hr before analysis.
# Whole-cell currents in oocytes were measured using a two-electrode voltage-clamp as previously described (Adams, et al. (1998)). Oocytes were bathed in frog Ringers solution containing, in mM: 116 NaCl, LiCl or KCl, 0.4 CaCl2, MgCl2, 5 4-(2-hydroxyethyl)-1-piperazineethanesulfonic acid (HEPES), pH 7.4. Acidic solutions were buffered with 5 mM 2-(4-morpholino)-ethanesulfonic acid (MES) instead of HEPES. Membrane voltage was held at −60 mV unless otherwise noted. Most peptides and naloxone were obtained from Sigma Chemical Co. (St. Louis, Mont.) and were added to the extracellular solution. The peptide FRRFamide was synthesized by Research Genetics (Huntsville, Ala.).
# ASICα = target: T1, ASICα (Homo sapiens, UniProt P78348); experiment: Excised, outside-out patches from HEK-293T cells transfected with ASICα; type: cell-based; set-up: expressed in transfected cells; host or cells: Xenopus laevis oocytes (nuclear injection of pMT3 plasmid); conditions: FMRFamide 100 μM; pH 5
# T1 sequence (P78348 1-528): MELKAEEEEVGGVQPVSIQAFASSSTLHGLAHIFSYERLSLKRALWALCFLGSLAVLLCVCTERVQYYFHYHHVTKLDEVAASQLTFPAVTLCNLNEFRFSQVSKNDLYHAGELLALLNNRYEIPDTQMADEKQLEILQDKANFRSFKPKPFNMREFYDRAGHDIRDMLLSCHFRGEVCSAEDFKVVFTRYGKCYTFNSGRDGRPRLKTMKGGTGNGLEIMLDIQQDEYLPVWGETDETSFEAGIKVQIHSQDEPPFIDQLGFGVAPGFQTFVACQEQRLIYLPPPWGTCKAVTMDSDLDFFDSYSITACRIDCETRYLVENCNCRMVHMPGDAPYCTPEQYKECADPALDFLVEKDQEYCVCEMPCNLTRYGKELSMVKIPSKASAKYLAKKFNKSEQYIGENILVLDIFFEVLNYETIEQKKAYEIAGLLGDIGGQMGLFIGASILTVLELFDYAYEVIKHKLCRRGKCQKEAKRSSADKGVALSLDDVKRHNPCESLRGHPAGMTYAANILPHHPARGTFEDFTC
# Source text: (§2) Human ASICα was cloned from brain polyA RNA. Rat ASICβ and mouse DRASIC were cloned from DRG RNA. Human BNC1 was cloned as described in Price et al. (1996)(Price, M. P., Snyder, P. M., and Welsh, M. J. (1996). Cloning and expression of a novel human brain Na^+ channel. J Biol Chem 271, 7879-7882). Constructs were cloned into pMT3 for expression. The validity of the constructs was confirmed by DNA sequencing.
# HEK-293T cells were a gift of Dr. Mark Stinski (Univ. of Iowa). ASICα cDNA was transfected into HEK-293T cells using Transfast lipid reagents (Promega, Madison, Wis.). To identify transfected cells, pGreenlantern vector encoding green fluorescent protein (Gibco, Gaithersburg, Md.) was co-transfected with ASICα at a ratio of 1:6; transfected cells were identified using epifluorescence microscopy. Cells were studied 1-2 days after transfection.
# Excised, outside-out patches were obtained from transfected HEK-293T cells. The bath solution contained, in mM: 140 NaCl, 2 MgCl2, 1.8 CaCl2, 10 HEPES at pH 7.4, or Tris(hydroxymethyl)aminomethane (Tris) or MES at pH 5. The pipette solution contained: 140 NMDG-Cl, 2 MgCl2, 2 EGTA, 10 HEPES, pH 7.4.
# To test whether FMRFamide interacts directly with the channel, ASICα was expressed in HEK293 cells and current from excised, outside-out patches was recorded.
# BNC1 = target: T2, BNC1 (Homo sapiens, UniProt Q16515); experiment: Two-electrode voltage-clamp of Xenopus oocytes expressing BNC1; type: cell-based; conditions: pH 5
# T2 construct: expressed in transfected cells; host or cells: Xenopus laevis oocytes (nuclear injection of pMT3 plasmid)
# T2 sequence (Q16515 1-512): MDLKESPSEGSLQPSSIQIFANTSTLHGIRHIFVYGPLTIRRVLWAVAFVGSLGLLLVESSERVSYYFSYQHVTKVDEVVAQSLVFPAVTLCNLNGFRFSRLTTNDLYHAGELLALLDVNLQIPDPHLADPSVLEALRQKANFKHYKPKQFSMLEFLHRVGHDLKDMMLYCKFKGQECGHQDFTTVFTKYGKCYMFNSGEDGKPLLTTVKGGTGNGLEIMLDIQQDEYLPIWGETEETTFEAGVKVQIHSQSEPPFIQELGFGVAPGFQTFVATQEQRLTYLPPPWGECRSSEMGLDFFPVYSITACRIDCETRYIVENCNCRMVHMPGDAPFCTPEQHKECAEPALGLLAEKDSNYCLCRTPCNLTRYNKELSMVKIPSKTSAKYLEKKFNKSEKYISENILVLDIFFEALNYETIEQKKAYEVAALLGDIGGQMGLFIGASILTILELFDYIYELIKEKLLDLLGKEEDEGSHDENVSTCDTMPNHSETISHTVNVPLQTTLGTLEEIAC
# Source text: as §2, §1
# Whole-cell currents in oocytes were measured using a two-electrode voltage-clamp as previously described (Adams, et al. (1998)). […]
# FaNaCh = FaNaCh (Cornu aspersum, UniProt Q25011); conditions: read-out: FMRFamide half-maximal concentration reported for FaNaCh; Lingueglia, et al. (1995); cited from earlier work
structure (smiles),measurement,setting,value
"CSCC[C@H](NC(=O)[C@@H](N)Cc1ccccc1)C(=O)N[C@@H](CCCNC(=N)N)C(=O)N[C@@H](Cc1ccccc1)C(N)=O [FMRFamide, Phe-Met-Arg-Phe amide]","current in control, water-injected oocytes",water-injected oocytes,Neither pH nor FMRFamide in any combination produced current
same,effect on inactivation of H+-dependent ASICα current in outside-out patches,ASICα,inactivation was slowed substantially
same,effect on acid-gated BNC1 currents,BNC1,not discernibly altered
same,EC50,FaNaCh,2 µM
